Assays:
[1] = target: human CB1 (hCB1) receptor (Homo sapiens, UniProt P21554); assay: Inhibition of forskolin-activated cAMP production upon activation of human CB1 receptor (HTRF assay, CHO-K1 cells); format: cell-based; conditions: agonism; CHO-K1 cells stably transfected with hCB1; pEC50=-log(EC50); relative to CP55490
Method: (§1) Functional activity of the test compounds was assessed by measuring their potency to inhibit forskolin-activated cAMP production upon activation of the human CB1 (hCB1) or human CB2 (hCB2) receptor through homogenous time resolved fluorescence (HTRF) assays.
(§2) CHO-K1 cells stably transfected with either hCB1 or hCB2 were grown up to 80-90% confluence in T175 Falcon flasks in DMEM/NUT MIX F-12 culture medium complemented with 2% Solution A (5.10^6 IU/1 penicillin G, 5 g/l streptomycin sulphate, 5.5 g/l pyruvate, 14.6 g/l L-glutamine, 1M NaOH) and 10% foetal calf serum. Before the experiments, medium was removed, cells were washed with PBS/EDTA (140 mM NaCl, 1 mM Na2-EDTA, 8 mM Na2HPO4.2H2O, 8.5 mM KH2PO4, 2.7 mM KCl, 21 mM glucose), resuspended in stimulation buffer (HBSS 1×, IBMX 1 mM, Hepes 5 mM, MgCl2 10 mM, BSA 0.1%, pH 7.4). Cells were diluted to a concentration of 8.10^5 cell/ml for hCB1 experiments and 10^6 cells/ml for hCB2 experiments. Assays were performed using the cAMP Dynamic HTRF kit (CIS bio international, France) according to the recommendations of the manufacturer. […]
(§3) After equilibration of the reaction mixtures for 1 to 24 hours in dark at room temperature, fluorescence was measured at 665 nm and 620 nm using a Discovery microplate fluorescence counter (Perkin Elmer), and the signal ratio of 665 nm/620 nm was calculated. […]

Protein sequences, listed by entry. Tags and fused reporters are not part of them.
UniProt P21554, whole entry: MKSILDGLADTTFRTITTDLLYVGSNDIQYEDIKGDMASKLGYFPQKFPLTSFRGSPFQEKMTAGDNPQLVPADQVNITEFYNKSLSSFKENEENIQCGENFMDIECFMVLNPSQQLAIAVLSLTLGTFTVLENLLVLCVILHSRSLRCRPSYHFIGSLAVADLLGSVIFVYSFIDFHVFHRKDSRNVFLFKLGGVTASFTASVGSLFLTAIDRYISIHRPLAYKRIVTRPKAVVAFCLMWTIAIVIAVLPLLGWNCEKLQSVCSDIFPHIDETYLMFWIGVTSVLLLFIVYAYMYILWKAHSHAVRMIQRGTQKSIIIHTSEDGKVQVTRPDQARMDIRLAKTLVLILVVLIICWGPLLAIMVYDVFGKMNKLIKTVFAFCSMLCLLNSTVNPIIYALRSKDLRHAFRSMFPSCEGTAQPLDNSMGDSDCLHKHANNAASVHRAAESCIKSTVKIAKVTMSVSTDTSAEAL
UniProt P34972, whole entry: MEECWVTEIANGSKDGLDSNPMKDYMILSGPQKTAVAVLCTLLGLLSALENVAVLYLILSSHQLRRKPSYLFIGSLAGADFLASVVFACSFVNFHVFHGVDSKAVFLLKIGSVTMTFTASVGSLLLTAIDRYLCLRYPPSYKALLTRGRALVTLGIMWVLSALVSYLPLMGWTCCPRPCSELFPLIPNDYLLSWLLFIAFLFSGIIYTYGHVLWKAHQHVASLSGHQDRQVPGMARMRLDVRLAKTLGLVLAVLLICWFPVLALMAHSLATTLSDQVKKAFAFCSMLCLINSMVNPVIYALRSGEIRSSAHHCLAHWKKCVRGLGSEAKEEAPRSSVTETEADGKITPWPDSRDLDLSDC

[2] = target: human CB2 (hCB2) receptor (Homo sapiens, UniProt P34972); assay: Inhibition of forskolin-activated cAMP production upon activation of human CB2 receptor (HTRF assay, CHO-K1 cells); format: cell-based; conditions: agonism; CHO-K1 cells stably transfected with hCB2; pEC50=-log(EC50); relative to WIN55212-2
Method: as §1, §2, §3

Compound: CC(C)(C)c1nc2cc(Sc3ccc(C#N)cc3)ccc2n1CCCCC(F)(F)F
- CB-1 pEC50 [1]: 8.3
- CB-2 pEC50 [2]: 8.8

— US20100273831A1, “FLUORO ALKYL SUBSTITUTED BENZIMIDAZOLE CANNABINOID AGONISTS” (priority 2007, published 2010)
